This test deals with Dihydroorotate dehydrogenase (quinone), mitochondrial (Homo sapiens, UniProt Q02127).

Chains of the proteins cited; added tags and fusions are not shown. Lines headed by an entry give the natural chain unless they say otherwise; changes in a name come on top.
UniProt Q02127: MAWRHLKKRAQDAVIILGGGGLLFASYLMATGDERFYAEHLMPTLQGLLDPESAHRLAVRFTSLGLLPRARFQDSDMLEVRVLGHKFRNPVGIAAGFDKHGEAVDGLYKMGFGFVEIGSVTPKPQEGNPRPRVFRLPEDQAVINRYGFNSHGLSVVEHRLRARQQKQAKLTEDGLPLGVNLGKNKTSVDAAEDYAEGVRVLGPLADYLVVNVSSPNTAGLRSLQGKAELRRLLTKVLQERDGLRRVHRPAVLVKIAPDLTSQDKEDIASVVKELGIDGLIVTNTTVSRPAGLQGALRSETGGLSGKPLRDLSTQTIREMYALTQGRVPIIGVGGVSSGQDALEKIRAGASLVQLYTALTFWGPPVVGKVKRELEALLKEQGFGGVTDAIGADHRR

pIC50: −log10 of the molar value.

In general, pIC50 refers to the IC50 on a negative log10 scale, so that one unit is a factor of ten. Low values mean a high IC50, high ones a low IC50. Regarding `Cc1cc(Nc2ccc(S(F)(F)(F)(F)F)cc2)n2nc(C(F)(F)F)nc2n1`, the pIC50 is 4.39.

The values are drawn from ChEMBL document CHEMBL1955725, “Structure-guided lead optimization of triazolopyrimidine-ring substituents identifies potent Plasmodium falciparum dihydroorotate dehydrogenase inhibitors with clinical candidate potential” (J Med Chem, 2011).
